Protein sequences, listed by entry. Tags and fused reporters are not part of them.
UniProt P51681, whole entry: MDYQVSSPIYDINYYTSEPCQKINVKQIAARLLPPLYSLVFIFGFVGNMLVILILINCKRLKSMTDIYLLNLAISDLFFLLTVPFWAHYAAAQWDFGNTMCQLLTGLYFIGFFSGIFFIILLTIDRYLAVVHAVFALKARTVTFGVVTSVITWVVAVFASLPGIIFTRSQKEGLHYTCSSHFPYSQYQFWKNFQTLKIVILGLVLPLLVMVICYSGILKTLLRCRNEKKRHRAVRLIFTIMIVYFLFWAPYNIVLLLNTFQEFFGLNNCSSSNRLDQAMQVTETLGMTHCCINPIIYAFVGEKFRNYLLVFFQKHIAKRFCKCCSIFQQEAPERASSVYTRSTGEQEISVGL

According to patent publication US7192973B2, “Piperidine derivatives and their use as modulators of chemokine receptor activity (especially CCR5)” (AstraZeneca AB, priority 2001, dated 2007):

What follows are compounds tested against recombinant human CCR5 receptor (Homo sapiens, UniProt P51681) (assay: in vitro radioligand binding assay: inhibition of the binding of iodinated MIP-1α). Settings: membranes from Chinese hamster ovary cells expressing CCR5; 0.1 nM iodinated MIP-1α; average if tested more than once.

Structure (SMILES) | Pic50
CCN(C(=O)Cc1ccc(S(C)(=O)=O)cc1)C1CCN(CCC(c2ccccc2)N2CCN(S(=O)(=O)CC)CC2)CC1 (centres unmarked) | 7.84
CCN(C(=O)Cc1ccc(S(C)(=O)=O)cc1)C1CCN(CCC(c2ccccc2)N2CCN(S(=O)(=O)c3cccs3)CC2)CC1 (centres unmarked) | 8.63
CCN(C(=O)Cc1ccc(S(C)(=O)=O)cc1)C1CCN(CCC(c2ccccc2)N2CCN(S(=O)(=O)c3ccccc3)CC2)CC1 (centres unmarked) | 8.0
CCN(C(=O)Cc1ccc(S(C)(=O)=O)cc1)C1CCN(CCC(c2cccc(F)c2)N2CCN(c3ccc(F)cc3)CC2)CC1 (centres unmarked) | 8.37
CCN(C(=O)Cc1ccc(S(C)(=O)=O)cc1)C1CCN(CCC(c2ccccc2)C2CCN(Cc3ccccc3)CC2)CC1 (centres unmarked) | 8.05
CCN(C(=O)Cc1ccc(S(C)(=O)=O)cc1)C1CCN(CCC(c2ccccc2)C2CCN(C(=O)c3ccc(Cl)cc3)CC2)CC1 (centres unmarked) | 8.78
CCN(C(=O)Cc1ccc(S(C)(=O)=O)cc1)C1CCN(CCC(c2cccc(F)c2)C2CCN(Cc3ccncc3)CC2)CC1 (centres unmarked) | 8.85

More lines, now with the values ahead:

Pic50 | Structure (SMILES)
9.2 | CCN(C(=O)Cc1ccc(S(C)(=O)=O)cc1)C1CCN(CCC(c2ccccc2)C2CCN(S(=O)(=O)c3ccccc3)CC2)CC1 (centres unmarked)
8.25 | CCN(C(=O)NCc1ccc(S(C)(=O)=O)cc1)C1CCN(CCC(c2ccccc2)N2CCN(S(=O)(=O)CC)CC2)CC1 (centres unmarked)
6.47 | CCN(C(=O)Cc1ccc(S(C)(=O)=O)cc1)C1CCN(CCC(c2ccccc2)N2CCC(C)CC2)CC1 (centres unmarked)
8.9 | CCN(C(=O)Cc1ccc(S(C)(=O)=O)cc1)C1CCN(CCC(c2ccccc2)C2CCN(S(=O)(=O)CC)CC2)CC1 (centres unmarked)
8.3 | CCN(C(=O)Cc1ccc(S(C)(=O)=O)cc1)C1CCN(CCC(c2ccccc2)N2CCN(c3ccccc3)CC2)CC1 (centres unmarked)
8.2 | CCN(C(=O)Cc1ccc(S(C)(=O)=O)cc1)C1CCN(CCC(c2cccc(F)c2)C2CCN(C(=O)Nc3ccccc3)CC2)CC1 (centres unmarked)
7.84 | CCN(C(=O)Cc1ccc(S(C)(=O)=O)cc1)C1CCN(CCC(c2ccccc2)N2CCN(C(=O)c3ccccc3)CC2)CC1 (centres unmarked)
